Assay [1] has as its target Dual specificity calcium/calmodulin-dependent 3',5'-cyclic nucleotide phosphodiesterase 1A (Homo sapiens, UniProt P54750). Description: Inhibition of PDE1A.
Assay [2] addresses Dual 3',5'-cyclic-AMP and -GMP phosphodiesterase 11A (Homo sapiens, UniProt Q9HCR9). Nature of the assay: Inhibition of PDE11A4.
The target in assay [3] is High affinity cGMP-specific 3',5'-cyclic phosphodiesterase 9A (Homo sapiens, UniProt O76083). Description: Inhibition of PDE9A2.
In assay [4] the target is High affinity cAMP-specific and IBMX-insensitive 3',5'-cyclic phosphodiesterase 8A (Homo sapiens, UniProt O60658). Description: Inhibition of PDE8A1.

Chains of the proteins cited; added tags and fusions are not shown. Lines headed by an entry give the natural chain unless they say otherwise; changes in a name come on top.
UniProt P54750: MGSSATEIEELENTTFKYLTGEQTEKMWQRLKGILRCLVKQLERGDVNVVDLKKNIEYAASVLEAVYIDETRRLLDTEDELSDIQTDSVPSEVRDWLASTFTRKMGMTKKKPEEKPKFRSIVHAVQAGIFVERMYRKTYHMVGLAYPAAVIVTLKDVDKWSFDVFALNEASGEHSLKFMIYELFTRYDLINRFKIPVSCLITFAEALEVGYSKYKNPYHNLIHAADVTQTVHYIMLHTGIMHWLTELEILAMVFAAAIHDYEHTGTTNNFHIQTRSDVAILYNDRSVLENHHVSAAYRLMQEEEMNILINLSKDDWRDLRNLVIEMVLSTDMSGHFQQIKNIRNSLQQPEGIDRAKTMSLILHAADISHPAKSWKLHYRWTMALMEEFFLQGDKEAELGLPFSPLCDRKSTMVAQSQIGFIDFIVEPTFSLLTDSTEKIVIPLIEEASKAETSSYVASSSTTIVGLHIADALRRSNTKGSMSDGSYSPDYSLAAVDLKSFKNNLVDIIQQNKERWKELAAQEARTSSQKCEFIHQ
UniProt Q9HCR9: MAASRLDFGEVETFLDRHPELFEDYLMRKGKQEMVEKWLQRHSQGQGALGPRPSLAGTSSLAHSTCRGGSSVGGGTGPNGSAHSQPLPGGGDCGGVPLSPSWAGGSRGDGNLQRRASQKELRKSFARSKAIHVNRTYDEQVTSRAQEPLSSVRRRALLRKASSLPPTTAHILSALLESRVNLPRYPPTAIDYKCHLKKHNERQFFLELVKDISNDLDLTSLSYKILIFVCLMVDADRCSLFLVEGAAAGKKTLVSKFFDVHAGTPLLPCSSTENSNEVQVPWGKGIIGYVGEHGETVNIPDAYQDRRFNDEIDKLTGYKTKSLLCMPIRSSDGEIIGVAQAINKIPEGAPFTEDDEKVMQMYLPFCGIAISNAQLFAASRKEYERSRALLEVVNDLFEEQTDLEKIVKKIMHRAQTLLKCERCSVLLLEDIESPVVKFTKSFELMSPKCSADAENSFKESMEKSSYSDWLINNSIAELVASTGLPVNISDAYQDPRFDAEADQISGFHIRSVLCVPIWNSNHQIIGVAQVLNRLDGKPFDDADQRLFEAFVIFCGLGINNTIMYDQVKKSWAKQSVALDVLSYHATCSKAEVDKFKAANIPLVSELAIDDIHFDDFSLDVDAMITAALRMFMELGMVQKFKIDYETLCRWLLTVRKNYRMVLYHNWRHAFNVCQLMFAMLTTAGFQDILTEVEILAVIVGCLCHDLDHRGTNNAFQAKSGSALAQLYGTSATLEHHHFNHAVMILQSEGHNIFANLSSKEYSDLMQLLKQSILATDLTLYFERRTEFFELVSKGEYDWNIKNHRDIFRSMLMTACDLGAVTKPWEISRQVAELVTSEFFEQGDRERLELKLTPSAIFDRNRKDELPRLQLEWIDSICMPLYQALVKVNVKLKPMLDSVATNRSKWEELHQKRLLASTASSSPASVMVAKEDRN
UniProt O76083: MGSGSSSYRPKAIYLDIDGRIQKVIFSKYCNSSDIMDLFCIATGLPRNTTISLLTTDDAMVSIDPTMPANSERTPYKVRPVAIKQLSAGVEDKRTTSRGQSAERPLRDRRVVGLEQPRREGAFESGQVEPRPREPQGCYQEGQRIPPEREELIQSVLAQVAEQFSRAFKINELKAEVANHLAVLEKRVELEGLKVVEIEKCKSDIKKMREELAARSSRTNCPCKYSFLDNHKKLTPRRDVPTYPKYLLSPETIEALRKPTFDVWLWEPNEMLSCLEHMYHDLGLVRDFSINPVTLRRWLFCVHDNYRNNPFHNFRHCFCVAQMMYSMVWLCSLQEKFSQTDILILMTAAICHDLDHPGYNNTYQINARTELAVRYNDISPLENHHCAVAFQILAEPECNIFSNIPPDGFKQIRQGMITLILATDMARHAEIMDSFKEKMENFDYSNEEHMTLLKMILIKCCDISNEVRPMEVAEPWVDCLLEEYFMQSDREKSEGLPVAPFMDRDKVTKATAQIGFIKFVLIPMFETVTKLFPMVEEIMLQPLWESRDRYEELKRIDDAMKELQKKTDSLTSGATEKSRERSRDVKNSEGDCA
UniProt O60658: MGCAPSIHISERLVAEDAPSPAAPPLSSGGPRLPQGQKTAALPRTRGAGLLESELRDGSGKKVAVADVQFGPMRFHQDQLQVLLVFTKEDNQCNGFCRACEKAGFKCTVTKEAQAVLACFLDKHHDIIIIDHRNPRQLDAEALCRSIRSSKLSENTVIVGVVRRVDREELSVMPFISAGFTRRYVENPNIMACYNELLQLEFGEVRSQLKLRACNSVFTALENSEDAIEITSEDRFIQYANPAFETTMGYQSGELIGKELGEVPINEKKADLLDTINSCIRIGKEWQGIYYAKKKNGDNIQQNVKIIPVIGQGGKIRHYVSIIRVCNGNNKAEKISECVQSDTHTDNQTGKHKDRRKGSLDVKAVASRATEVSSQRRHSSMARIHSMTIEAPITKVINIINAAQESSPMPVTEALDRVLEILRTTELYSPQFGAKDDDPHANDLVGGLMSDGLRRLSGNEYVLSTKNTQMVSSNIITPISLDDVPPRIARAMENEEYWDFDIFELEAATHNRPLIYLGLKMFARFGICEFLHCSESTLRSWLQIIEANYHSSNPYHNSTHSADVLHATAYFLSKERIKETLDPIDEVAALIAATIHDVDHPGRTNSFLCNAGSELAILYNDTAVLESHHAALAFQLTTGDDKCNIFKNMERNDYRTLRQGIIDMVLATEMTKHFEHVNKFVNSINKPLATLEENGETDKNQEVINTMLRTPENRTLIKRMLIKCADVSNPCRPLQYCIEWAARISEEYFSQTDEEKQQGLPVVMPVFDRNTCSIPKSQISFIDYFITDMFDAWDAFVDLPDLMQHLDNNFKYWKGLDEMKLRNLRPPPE

As for `COc1ccc(OC)c(-c2nnc3n2N=C(c2ccc(OC)c(OC)c2)CS3)c1`, the IC50 result in assay [1], in assay [2] and in assay [3] was “Not Active” in each case.
Regarding `COc1ccc(OC)c(-c2nnc3ccc(-c4ccc(OC)c(O[C@@H]5CCOC5)c4)nn23)c1`, the IC50 entry in assay [2], in assay [3] and in assay [4] was “Not Active” throughout.
Take `COc1ccc(OC)c(-c2nnc3n2N=C(c2ccc(OC)c(O[C@@H]4CCOC4)c2)CS3)c1`: the IC50 entry in assay [2], in assay [3] and in assay [4] was “Not Active” throughout.
Consider `COc1ccc(C2CNC(=O)C2)cc1OC1CCCC1` (stereo not given) [ROLIPRAM], for which the IC50 result in assay [1] is recorded as “Not Active”.
